The text below walks through data of patent publication US20040106198A1, “Inhibition of peptide cleavage in plants” (LARGE SCALE BIOLOGY CORPORATION, priority 2002, published 2004).

The assay has as its target Nicotianalisin (Nicotiana benthamiana subtilisin-like serine protease) (Nicotiana benthamiana). The assay is described as follows: cell-based or functional assay.

In turn, Aprotinin (from UniProt P00974 36-93) yielded a % Inhibition of protease activity in IF (hydrolysis of 0.3 mM N-Suc-AAPL-p-NA after 30 min with inhibitor at 24 C) of 46%.
